Measurements as given in US6869925 (Amgen, dated 2005).

Biological target: SLPI binding sites on U937 cells (human monocyte cell line; intact cells, PMA-induced cells or plasma membranes) (human)
Experiment: competition with 125I-SLPI, U937 plasma membranes, Kd by Cheng-Prusoff

Kd: 10 µM
Substance: aprotinin (from UniProt P00974 36-93)
